The values below are quoted from earlier work in paper PMC3981547.

Sequences of proteins named here, by UniProt entry; tags and fusion partners are left off. Residues count along the entry.
UniProt P01589, 22-240, chain 1 of 2: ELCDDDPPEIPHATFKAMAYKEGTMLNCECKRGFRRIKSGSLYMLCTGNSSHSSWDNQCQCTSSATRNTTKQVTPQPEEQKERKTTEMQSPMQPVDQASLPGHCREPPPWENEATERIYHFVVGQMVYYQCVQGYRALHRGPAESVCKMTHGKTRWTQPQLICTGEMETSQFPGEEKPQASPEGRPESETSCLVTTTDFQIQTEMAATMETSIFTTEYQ
UniProt P60568, 21-153: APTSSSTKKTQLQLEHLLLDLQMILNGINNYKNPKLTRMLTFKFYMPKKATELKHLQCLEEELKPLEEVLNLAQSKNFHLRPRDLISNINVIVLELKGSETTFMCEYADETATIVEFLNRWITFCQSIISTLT

pKd: −log10 of the molar value.

The term pKd denotes the negative decadic logarithm of the Kd, by convention in mol/L.

Data set [1] deals with IL-2Rα/IL-2Rβ (Homo sapiens) (UniProt P01589).
Data set [2] has as its target IL-2Rα/IL-2Rβ/γc (Homo sapiens) (UniProt P01589).

Regarding IL-2 (from UniProt P60568), the pKd in data set [1] was 10.52; in data set [2], 11.00.
